Values of other authors as cited in article PMC9339481 (Nature chemical biology, 2022).

Target: T1, HDAC10 (Homo sapiens, UniProt Q969S8)
T1 sequence (Q969S8 1-669): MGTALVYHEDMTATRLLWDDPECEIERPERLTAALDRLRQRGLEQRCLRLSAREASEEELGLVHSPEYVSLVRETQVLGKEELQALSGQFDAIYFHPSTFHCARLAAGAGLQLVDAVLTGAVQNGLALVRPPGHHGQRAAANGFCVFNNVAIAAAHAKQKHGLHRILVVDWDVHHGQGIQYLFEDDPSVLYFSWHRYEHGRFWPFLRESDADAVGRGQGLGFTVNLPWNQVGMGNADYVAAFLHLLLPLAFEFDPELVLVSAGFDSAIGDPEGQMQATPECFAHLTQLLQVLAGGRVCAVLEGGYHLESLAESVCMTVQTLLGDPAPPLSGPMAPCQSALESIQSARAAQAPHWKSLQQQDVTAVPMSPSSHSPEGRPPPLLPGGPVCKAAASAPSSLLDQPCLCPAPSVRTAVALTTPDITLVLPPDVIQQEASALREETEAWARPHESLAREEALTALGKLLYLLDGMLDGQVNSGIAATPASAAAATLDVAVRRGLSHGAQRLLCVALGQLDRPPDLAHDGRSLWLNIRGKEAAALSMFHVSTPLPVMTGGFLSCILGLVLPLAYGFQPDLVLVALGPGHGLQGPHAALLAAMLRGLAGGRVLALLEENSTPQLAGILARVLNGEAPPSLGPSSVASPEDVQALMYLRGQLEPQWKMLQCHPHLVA
Conditions: reported values; cited from earlier work

CCCCN(Cc1ccc(C(=O)NO)cc1)C(=O)Nc1ccccc1 [Nexturastat A]
pEC50 HDAC10: 5.1
